{
  "sequences": {"note": "Sequences of proteins named here, by UniProt entry; tags and fusion partners are left off.", "UniProt P00811, whole entry": "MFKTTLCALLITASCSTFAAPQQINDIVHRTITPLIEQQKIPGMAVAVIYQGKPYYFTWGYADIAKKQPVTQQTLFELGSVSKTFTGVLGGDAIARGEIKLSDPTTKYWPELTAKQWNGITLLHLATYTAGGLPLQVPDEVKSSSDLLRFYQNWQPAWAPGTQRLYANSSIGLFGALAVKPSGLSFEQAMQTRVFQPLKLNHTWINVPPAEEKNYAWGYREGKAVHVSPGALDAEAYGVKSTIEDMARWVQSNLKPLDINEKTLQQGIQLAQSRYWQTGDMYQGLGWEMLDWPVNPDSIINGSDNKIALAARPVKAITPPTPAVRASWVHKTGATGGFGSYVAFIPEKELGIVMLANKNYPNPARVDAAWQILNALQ"},
  "source": "PubChem BioAssay AID485341",
  "about": "(National Center for Advancing Translational Sciences (NCATS), 2010)",
  "note": "The entries are a selection whose mix differs from that of the whole data set. Activity calls are given as the source filed them. Calls come from the whole dose curve; as a rule, active = well fitted inhibition curve with a large enough effect; inconclusive = small, poorly fitted or top-dose-only effect; inactive = no such curve, though single readings can be large or run the other way.",
  "data": [
    {"target": "Beta-lactamase (Escherichia coli (strain K12)) (UniProt P00811)", "assay": "qHTS Inhibitors of AmpC Beta-Lactamase (assay without detergent); note: nearly all actives have a fitted effect of over 20% in size", "details": "AmpC nitrocefin hydrolysis, absorbance 480 nm, 0.0001% Triton; at 57.1 µM (top of the series)", "procedure": "NIH Molecular Libraries Probe Production Network [MLPCN] NIH Chemical Genomics Center [NCGC] Assay Provider: Professor Brian Shoichet, UCSF Assay Overview: This aggregation profiling approach exploits the sensitivity of aggregate formation to detergent. Inhibition of b-lactamase is measured in the presence and absence of 0.01% Triton X-100. This particular assay had the prescence of 0.01% Triton X-100. See Pubchem assay \"Promiscuous and Specific Inhibitors of AmpC Beta-Lactamase (assay without detergent)\" for related screen. Compounds that inhibit only in the absence of detergent are considered likely promiscuous aggregators. A screen of 1,030 compounds was performed in Brian Shoichet's lab in 96-well format. AmpC activity was measured by following the absorbance at 480 nm. Nitrocefin is a chromogenic substrate: while nitrocefin is yellow (lmax 390 nm), the product of its hydrolysis is red (lmax 486 nm, 17,000 M-1). AmpC beta lactamase was provided by Shoichet Lab, UCSF.\nBuffer: 20 mM phosphate buffer, pH 7.0 Triton X-100: No Detergent screen: 0.0001%, Detergent screen: 0.01%. Reagents/Controls: Buffer in columns 3 and 4 as negative control (no enzyme). 5.3 nM AmpC in columns 1, 2, 5-48. […] The plates were immediately transferred to and read every 20 seconds for 4 min on ViewLux (Perkin-Elmer) High-throughput CCD imager using 480 nm absorbance protocol. […]", "values": [
      {"smiles": "CCC(=O)N(c1ccccc1)C1(COC)CCN(CCn2nnn(CC)c2=O)CC1", "activity change, negative = inhibition": "inactive: 22.4%"},
      {"smiles": "CCC(=O)N(c1ccccc1)C1(COC)CCN(CCc2cccs2)CC1", "activity change, negative = inhibition": "inactive: 20.7%"}
    ]}
  ]
}
